# Test results from ChEMBL document CHEMBL3297697, “Property- and structure-guided discovery of a tetrahydroindazole series of interleukin-2 inducible T-cell kinase inhibitors” (J Med Chem, 2014).
# Biological target: T1, Tyrosine-protein kinase ITK/TSK (Homo sapiens, UniProt Q08881)
# T1 sequence (Q08881 whole entry): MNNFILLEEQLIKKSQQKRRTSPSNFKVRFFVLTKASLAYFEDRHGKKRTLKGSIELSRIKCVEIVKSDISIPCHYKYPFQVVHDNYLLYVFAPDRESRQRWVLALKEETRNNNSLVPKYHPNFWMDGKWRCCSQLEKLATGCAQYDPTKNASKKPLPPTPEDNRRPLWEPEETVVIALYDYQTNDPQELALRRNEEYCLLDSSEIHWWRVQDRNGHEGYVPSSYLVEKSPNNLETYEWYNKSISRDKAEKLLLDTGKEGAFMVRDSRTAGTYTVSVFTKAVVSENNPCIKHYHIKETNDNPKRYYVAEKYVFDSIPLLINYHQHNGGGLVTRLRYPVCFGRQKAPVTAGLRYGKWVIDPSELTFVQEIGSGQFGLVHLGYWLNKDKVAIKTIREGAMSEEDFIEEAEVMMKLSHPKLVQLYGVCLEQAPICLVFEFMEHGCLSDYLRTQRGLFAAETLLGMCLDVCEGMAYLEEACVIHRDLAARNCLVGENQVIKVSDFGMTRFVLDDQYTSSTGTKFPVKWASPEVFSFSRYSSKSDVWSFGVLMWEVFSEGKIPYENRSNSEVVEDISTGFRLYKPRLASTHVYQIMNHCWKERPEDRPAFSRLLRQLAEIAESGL
compound,measurement,value
Cc1cccc([C@H](CCN(C)C)n2cc(NC(=O)c3n[nH]c4c3CCC(C)(C)C4)cn2)c1,IC50,47 nM
